Columns and labels:
[1] = target: T1, E. coli GroEL/ES (Escherichia coli, UniProt P0A6F5)
[2] = target: Chaperonin GroEL (Escherichia coli (strain K12), UniProt P0A6F5);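 note: inhibition of GroEL ATPase activity with ATP as substrate, 60 min incubation, spectrometric read-out, recombinant enzyme produced in Escherichia coli DH5alpha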
[3] = target: HSP60/HSP10 (Homo sapiens, UniProt P10809);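 note: His-tagged human HSP60 with HSP10 refolding denatured MDH, read as MDH activity on mesoxalate by malachite green spectrometry, inhibition of refolding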
[4] = target: T1, E. coli GroEL/ES; remark: listed apart in the source
[5] = target: T2, Thiosulfate sulfurtransferase (Homo sapiens, UniProt Q16762); format: ADME;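 note: native rhodanese of unspecified species, enzyme activity read after 45 min by spectrophotometric detection of Fe(SCN)3 colour, IC50 reflects activity reduction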
T2 sequence (Q16762 whole entry): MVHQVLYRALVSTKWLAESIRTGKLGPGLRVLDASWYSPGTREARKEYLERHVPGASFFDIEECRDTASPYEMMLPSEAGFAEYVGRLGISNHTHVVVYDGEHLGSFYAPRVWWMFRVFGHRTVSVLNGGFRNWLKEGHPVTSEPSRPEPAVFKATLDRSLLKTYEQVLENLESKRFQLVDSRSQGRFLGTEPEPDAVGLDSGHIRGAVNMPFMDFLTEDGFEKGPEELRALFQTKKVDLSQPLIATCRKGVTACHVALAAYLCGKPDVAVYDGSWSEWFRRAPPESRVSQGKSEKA

Protein sequences, listed by entry. Tags and fused reporters are not part of them.
UniProt P0A6F5, whole entry, looked up: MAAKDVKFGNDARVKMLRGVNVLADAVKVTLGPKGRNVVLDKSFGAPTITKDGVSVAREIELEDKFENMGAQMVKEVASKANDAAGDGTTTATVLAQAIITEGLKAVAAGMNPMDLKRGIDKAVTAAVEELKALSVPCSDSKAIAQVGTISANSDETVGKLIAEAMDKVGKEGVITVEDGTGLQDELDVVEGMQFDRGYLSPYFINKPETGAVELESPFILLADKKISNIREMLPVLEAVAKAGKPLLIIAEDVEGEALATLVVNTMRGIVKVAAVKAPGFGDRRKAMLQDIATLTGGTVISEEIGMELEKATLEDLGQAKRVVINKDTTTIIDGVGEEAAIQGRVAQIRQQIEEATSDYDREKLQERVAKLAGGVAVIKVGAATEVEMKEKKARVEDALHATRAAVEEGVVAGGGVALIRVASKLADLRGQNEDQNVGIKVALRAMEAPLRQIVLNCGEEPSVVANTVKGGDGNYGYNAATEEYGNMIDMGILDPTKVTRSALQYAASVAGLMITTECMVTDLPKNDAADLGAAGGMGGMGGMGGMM
UniProt P10809, whole entry: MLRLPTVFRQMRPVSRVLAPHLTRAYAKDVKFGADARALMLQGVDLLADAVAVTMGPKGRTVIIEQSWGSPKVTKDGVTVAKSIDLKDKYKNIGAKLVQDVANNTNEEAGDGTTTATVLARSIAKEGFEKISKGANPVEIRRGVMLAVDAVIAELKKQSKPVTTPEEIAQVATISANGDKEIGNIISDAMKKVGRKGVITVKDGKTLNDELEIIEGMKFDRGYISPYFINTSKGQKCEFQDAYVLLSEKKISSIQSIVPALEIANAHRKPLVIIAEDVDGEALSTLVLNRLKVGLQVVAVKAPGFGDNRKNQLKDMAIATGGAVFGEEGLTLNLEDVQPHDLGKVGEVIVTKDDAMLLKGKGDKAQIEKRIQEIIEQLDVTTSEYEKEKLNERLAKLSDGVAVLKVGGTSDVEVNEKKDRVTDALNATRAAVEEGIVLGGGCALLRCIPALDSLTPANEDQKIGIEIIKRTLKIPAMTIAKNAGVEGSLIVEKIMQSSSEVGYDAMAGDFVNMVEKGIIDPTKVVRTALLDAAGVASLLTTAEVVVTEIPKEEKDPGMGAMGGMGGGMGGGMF

SMILES	IC50 [3] [µM]	IC50 [4] [µM]	further results
O=C(O)c1ccccc1-c1c2cc(I)c(=O)c(I)c-2oc2c(I)c(O)c(I)cc12	2.9	1.2	IC50 [1]: 0.5 µM; IC50 [2]: 222 µM
CC1=NCCc2c1[nH]c1cc(O)ccc21 [HARMALOL]	–	16	–
O=C1C=C2CC3(O)COc4c(ccc(O)c4O)C3=C2C=C1O (configuration not stated) [HEMATEIN]	–	1.2	–
C[C@H](CCC(=O)O)[C@H]1CC[C@H]2[C@@H]3CC[C@@H]4C[C@H](O)CC[C@]4(C)[C@H]3CC[C@]12C [LITHOCHOLIC ACID]	–	–	IC50 [1]: 16 µM
Nc1ccc(O)c(C(=O)O)c1 [MESALAMINE]	12	–	–
Cc1cc2nc3c(=O)[nH]c(=O)nc-3n(C[C@H](O)[C@H](O)[C@H](O)COP(=O)(O)O)c2cc1C [RIBOFLAVIN 5'-PHOSPHATE SODIUM]	80	–	–
Cc1ccc(C(=O)Nc2ccc(S(=O)(=O)O)c3cc(S(=O)(=O)O)cc(S(=O)(=O)O)c23)cc1NC(=O)c1cccc(NC(=O)Nc2cccc(C(=O)Nc3cc(C(=O)Nc4ccc(S(=O)(=O)O)c5cc(S(=O)(=O)O)cc(S(=O)(=O)O)c45)ccc3C)c2)c1 [SURAMIN]	–	16	–
C=C(NC(=O)C(=C)NC(=O)c1csc(C2=N[C@@H]3c4csc(n4)[C@H]4NC(=O)c5csc(n5)[C@H]([C@](C)(O)[C@@H](C)O)NC(=O)[C@H]5CSC(=N5)/C(=C/C)NC(=O)[C@H]([C@@H](C)O)NC(=O)c5csc(n5)[C@]3(CC2)NC(=O)[C@H](C)NC(=O)C(=C)NC(=O)[C@H](C)NC(=O)[C@H]([C@@H](C)CC)N[C@@H]2C=Cc3c([C@H](C)O)cc(nc3[C@H]2O)C(=O)O[C@@H]4C)n1)C(N)=O [THIOSTREPTON]	–	16	–
CC1=C(/C=C/C(C)=C/C=C/C(C)=C/C(=O)O)C(C)(C)CCC1 [TRETINOIN]	–	–	IC50 [5]: 91 µM

— ChEMBL document CHEMBL4392822, “HSP60/10 chaperonin systems are inhibited by a variety of approved drugs, natural products, and known bioactive molecules” (Bioorg Med Chem Lett, 2019)
